# Assay results from PubChem BioAssay AID1984 (Sanford-Burnham Center for Chemical Genomics, 2009).
# The list shows a part of the results, in another mix than the full data. Calls of active or inactive are those of the source.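 Rule for the calls: active = EGFP signal decrease of at least 30% at 10 µM or well 3 SD below plate mean, unless failing retest; inactive = the rest, including hits failing retest or dose response.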
# Molecular target: p/CIP-EGFP fusion (nuclear receptor coactivator 3, mouse) (UniProt Q05BA5)
# Test: p/CIP-EGFP fusion destabilizers, primary screen, fluorescence, F442A cells (AID 1984)
# Settings: 16 h, at 10 µM, stronger effect = higher value
row,SMILES,decrease of EGFP signal
1,CCC1=CC2Cc3nc4ccc(Cl)cc4c(N)c3C(C1)C2 (stereo not drawn),inactive: -6.6%
2,O=P1(Nc2ccccn2)COc2ccccc2OC1,inactive: -18.8%
3,CC(C)(C)C(=O)NC(Sc1ncccn1)C(Cl)(Cl)Cl (stereo not drawn),inactive: -3.7%
4,Clc1n[nH]nc1-c1nn[nH][15n]1,inactive: -4.1%
5,O=[As](O)(c1ccccc1Br)c1ccccc1Br,inactive: -12.4%
6,CN(C(=O)Cc1ccc(Cl)c(Cl)c1)[C@@H]1CCCC[C@H]1N1CCCC1,inactive: -4%
7,CC(C)/C=N\N=C(\N)N[N+](=O)[O-],inactive: 3.4%
8,Cc1ccc(C(=O)OC2CN3CCC2CC3)cc1 (stereo not drawn),inactive: 1.2%
9,CC1CCC(C(C)C)C(OP(=O)(Nc2ccccn2)c2ccccc2)C1 (stereo not drawn),inactive: 0.2%
10,Cc1nn(-c2ccccc2)c2c1P(=O)(N1CCOCC1)N(C)C(c1ccccc1)=N2 (stereo not drawn),inactive: 8.2%
11,O=C(/C=C/c1ccccc1)OC1CN2CCC1CC2 (stereo not drawn),inactive: -2.9%
12,CN(C)C1(CNC(=O)c2ccc(S(C)(=O)=O)cc2)CCCCC1,inactive: -7.2%
13,O=P1(Nc2ncccn2)COc2ccccc2OC1,inactive: -212%
14,O=P1(Nc2ccc(Br)cn2)COc2ccccc2OC1,inactive: 0.1%
15,Cc1ccc(OCC(=O)OC2CN3CCC2CC3)cc1 (stereo not drawn),inactive: -5.7%
16,O=[As](O)(c1cccs1)c1cccs1,inactive: 0.1%
17,Nc1cccc([As](=O)(O)c2ccccc2)c1,inactive: -5.9%
18,CS(=O)(=O)c1cc([N+](=O)[O-])c2no[n+]([O-])c2c1,inactive: -9.9%
19,O=P(Nc1nccs1)(c1ccccc1)c1nc2ccccc2s1 (stereo not drawn),inactive: -8.5%

row,SMILES,decrease of EGFP signal
1,O=P(Nc1nccs1)(Oc1ccccc1)Oc1ccccc1,inactive: 5.6%
2,CCOP1(=S)c2c(C)nn(CCC#N)c2N=C(c2ccccc2F)N1C (stereo not drawn),inactive: -7.5%
3,O=C(O)COc1ccc([As](=O)(O)O)cc1[N+](=O)[O-],inactive: 7.7%
4,Nc1ccccc1[As](=O)(O)c1ccccc1,inactive: 4.7%
5,NC(=O)Nc1ccc([As](=O)(O)O)cc1,inactive: -0.2%
6,O=[N+]([O-])c1ccc2c(c1)nnn2O,inactive: -3.6%
7,CCOP1(=S)c2c(C)nn(CCC#N)c2N=C(c2ccc(F)cc2)N1C (stereo not drawn),inactive: -17.2%
8,CN(C(=O)Cc1ccccc1)[C@@H]1CC[C@]2(CCCO2)C[C@H]1N1CCCC1,inactive: -3.1%
9,CS(=O)(=O)c1ccc(Cl)c(NC(=O)COC(=O)C(O)(c2ccccc2)c2ccccc2)c1,inactive: -7.5%
10,COc1cc(C(=O)NCC2(N3CCOCC3)CCCCC2)cc(Cl)c1OC(C)C,inactive: 11.2%
11,O=[As](O)(O)c1cccnc1,inactive: -10.4%
12,O=C(OC1CN2CCC1CC2)c1ccc(Cl)cc1 (stereo not drawn),inactive: 0.5%
13,O=[As](O)(c1cccc(O)c1)c1cccc(O)c1,inactive: -7.7%
14,Cc1cccc(OCC(=O)OC2CN3CCC2CC3)c1 (stereo not drawn),inactive: -11.7%
15,CCCOP(=S)(Nc1nc(N)cc(=O)[nH]1)OCCC,inactive: 3.9%
16,Cc1ccc(NCCc2c([N+](=O)[O-])cc([N+](=O)[O-])cc2[N+](=O)[O-])cc1,inactive: 3.8%
17,Nc1cccc2c([As](=O)(O)O)cccc12,inactive: -24.6%
18,CCOP(=O)(Nc1cccc2ccccc12)OCC,inactive: -3.6%
19,COc1cc(C2NCCC3(OCCO3)C2(C)C)cc(OC)c1OC (stereo not drawn),inactive: -1.7%
